## Ab-14 light chain CDR variants: yeast mating affinities

Binding partner: SARS-CoV-2 spike HR2 peptide, sequence PDVDLGDISGINAS.

Each scFv is VH, a 15-residue (Gly4Ser)3 linker, VL, as in the parent Ab-14, and differs from it in the CDRs of the light chain only.
VH: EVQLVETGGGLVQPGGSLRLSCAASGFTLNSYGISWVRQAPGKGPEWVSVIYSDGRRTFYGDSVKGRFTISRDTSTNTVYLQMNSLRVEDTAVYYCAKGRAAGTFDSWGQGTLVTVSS
VL: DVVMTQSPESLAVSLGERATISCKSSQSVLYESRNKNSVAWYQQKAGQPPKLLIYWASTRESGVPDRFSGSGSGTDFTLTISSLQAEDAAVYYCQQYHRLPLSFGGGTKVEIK

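The starting antibody came from a phage panning campaign against this peptide. The library (AAYL50) carries one to three amino acid substitutions per variant, with no insertions or deletions. The scFvs were displayed on barcoded MATa yeast, the peptide on MATalpha yeast. After mating in shaken culture at 30 °C for 16 h, diploids were selected and their barcode pairs sequenced. A regression on co-assayed BCL2-family reference pairs converts the normalised counts of each replicate to an apparent Kd. There are three technical replicates.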

The parent's light chain CDRs are KSSQSVLYESRNKNSVA, WASTRES, QQYHRLPLS; each variant's own CDRs replace them letter for letter. All variants listed here change S33 of the VL, counted from its first residue. Values are apparent Kd, the geometric mean of the replicates that gave a signal; lower means stronger binding. An entry "no signal" has no value in the source: the pair was not observed among the diploids in any replicate. This suggests poor binding but is not conclusive. Background: pairings of library AAYL50 with three empty control strains gave a value in 18% of cases (median 15 µM, 5th percentile 970 nM). Values in that range, when seen in few replicates, are hard to tell from nonspecific mating.

For KSSQSVLYEPRNKNSVA / WASTRES / NQYHRTPLS, the assay gave 38 µM (1 of 3 replicates).
For KSSQSVLWETRNKNSVA / WASTRES / QQYHRLPLK, the assay gave 230 nM (3 of 3 replicates).
For KSSQSVLYEPRNKNNVA / WASTRES / QQYSRLPLS, the assay gave 14 nM (3 of 3 replicates).
For KSSQSVLYEVRNKRSVA / WASTRGS / QQYHRLPLS, the assay gave no signal (0 of 3 replicates).
For KSSQSVLYEWRNKNSVY / WASTRES / EQYHRLPLS, the assay gave 3.3 µM (1 of 3 replicates).
For KSSQWVLYLFRNKNSVA / WASTRES / QQYHRLPLS, the assay gave no signal (0 of 3 replicates).
For KSSQSVLYEMRNKNNVA / WASTRES / YQYHRLPLS, the assay gave 6.8 µM (2 of 3 replicates).
For KSSQSVLYERTNKNSVA / WASTRES / QQYHRLPLS, the assay gave 4.4 nM (3 of 3 replicates).
For KSSQSVLYEKRNKNSVA / WASTRES / QQYCRLVLS, the assay gave no signal (0 of 3 replicates).
For KSSQSVLYEPRCKNSVA / WASTREA / QQYHRLPLS, the assay gave 11 nM (3 of 3 replicates).
For KTSQSVLYEFRNKNSVA / WASTRES / QQYHRNPLS, the assay gave 57 nM (3 of 3 replicates).
For KSSQSILYEDVNKNSVA / WASTRES / QQYHRLPLS, the assay gave 4.7 nM (3 of 3 replicates).
For KESQKVLYEPRNKNSVA / WASTRES / QQYHRLPLS, the assay gave 13 nM (3 of 3 replicates).
For KNSQSVLYEHRNKNSVA / WASTRES / QQYHRLPLM, the assay gave no signal (0 of 3 replicates).
For KSSQSVLGETRNKNSVA / WASTRIS / QQYHRLPLS, the assay gave 3.8 nM (3 of 3 replicates).
For KSSQSVLYEVRNKNSVA / WASTRES / QPYHRLPKS, the assay gave 2.5 mM (1 of 3 replicates).
For KSSQSVLYERRNKNSSA / WASTPES / QQYHRLPLS, the assay gave 25 nM (3 of 3 replicates).
For KSSQSVLFEHRNKNSVA / WASTRES / QQYHRLPLS, the assay gave 910 nM (3 of 3 replicates).
For KSSWSVLYEERNKNSEA / WASTRES / QQYHRLPLS, the assay gave 15 µM (1 of 3 replicates).
For KCYQSVLYEMRNKNSVA / WASTRES / QQYHRLPLS, the assay gave 2.8 µM (3 of 3 replicates).
For KSSQSVLYEWRNKNDVA / WASTRES / QQYHRLPLS, the assay gave 570 nM (3 of 3 replicates).
For KSSQSVLYEDRNKNSVA / WPSTRES / QQYHRLPLS, the assay gave 100 µM (3 of 3 replicates).
For VSIQSVLYEGRNKNSVA / WASTRES / QQYHRLPLS, the assay gave 2.4 nM (3 of 3 replicates).
For KSSQSVLYEWRNKNSVA / WASTMES / QQYIRLPLS, the assay gave no signal (0 of 3 replicates).
For TSSQSVLYEACNKNSVA / WASTRES / QQYHRLPLS, the assay gave 110 nM (3 of 3 replicates).
For KSSQSVLYEGRNKNSVA / WASTRES / QQYHRLPLS, the assay gave 7.8 nM (3 of 3 replicates).
For KSSQSVLYEFRNKNSVV / WASTRES / QQYHRLPES, the assay gave no signal (0 of 3 replicates).
For KSSQSVMYEPRNKNSVA / WASTRSS / QQYHRLPLS, the assay gave 100 nM (3 of 3 replicates).
For KSSQSVLYEMRNKNCVA / WASTRES / QQYHRLVLS, the assay gave 1.2 µM (3 of 3 replicates).
For KSSGSSLYEKRNKNSVA / WASTRES / QQYHRLPLS, the assay gave 9.4 nM (3 of 3 replicates).
For KSSQSVLFEDRNKNSVA / WASTRES / TQYHRLPLS, the assay gave 3.1 µM (1 of 3 replicates).
For KSSQSVLYEPRNKNSVA / WACTRES / QQYHRLPYS, the assay gave no signal (0 of 3 replicates).
For KSSQSVLYEYPNKNSVA / WASKRES / QQYHRLPLS, the assay gave no signal (0 of 3 replicates).
For KSSQSVLYETRNKNSVA / WASTRES / CQYHREPLS, the assay gave 300 nM (3 of 3 replicates).
For KSSQSVLYEPRNKNSVA / EASPRES / QQYHRLPLS, the assay gave 1.2 µM (3 of 3 replicates).
For KSSQSVLYECRNKNSVA / WAFTRES / QQYHRLPWS, the assay gave no signal (0 of 3 replicates).
For KSSQSPLYEKRNKNSVA / WASTRES / QQYHRLPLK, the assay gave 79 nM (3 of 3 replicates).
For KSSQSVLYEHRNKTSVA / WASTRES / QQVHRLPLS, the assay gave 4.3 µM (1 of 3 replicates).
For KSSQSNDYEQRNKNSVA / WASTRES / QQYHRLPLS, the assay gave 11 nM (3 of 3 replicates).
For KASQSVLYENRNKNSVA / WASTRES / QSYHRLPLS, the assay gave 4.4 nM (3 of 3 replicates).

Excerpt, the final 5 entries:

With KSSQSVLYECRNKNSVA / WAFTRES / QQYHRLPWS the result was no signal (0 of 3 replicates).
With KSSQSPLYEKRNKNSVA / WASTRES / QQYHRLPLK the result was 79 nM (3 of 3 replicates).
With KSSQSVLYEHRNKTSVA / WASTRES / QQVHRLPLS the result was 4.3 µM (1 of 3 replicates).
With KSSQSNDYEQRNKNSVA / WASTRES / QQYHRLPLS the result was 11 nM (3 of 3 replicates).
With KASQSVLYENRNKNSVA / WASTRES / QSYHRLPLS the result was 4.4 nM (3 of 3 replicates).

The measurements come from Engelhart et al. 2022 (doi:10.1038/s41597-022-01779-4) through the FLAb antibody collection.